scFv variants of Ab-95 (light chain) against a SARS-CoV-2 spike peptide

Values reported by Engelhart et al. 2022, doi:10.1038/s41597-022-01779-4 (FLAb copy).

All variants were tested on one target, the spike HR2 peptide PDVDLGDISGINAS (SARS-CoV-2).

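Variants in AAYL52 differ from the parent at up to three CDR positions; double and triple changes were sampled at random. The scFvs were displayed on barcoded MATa yeast, the peptide on MATalpha yeast. Mating (16 h, 30 °C) was followed by selection of diploids and sequencing of their barcodes. A regression on co-assayed BCL2-family reference pairs converts the normalised counts of each replicate to an apparent Kd. Mating was done three times.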

Ab-95 is the parent antibody, in scFv form: VH, then a (GGGGS)3 linker, then VL. The heavy chain is unchanged in all variants.
VH: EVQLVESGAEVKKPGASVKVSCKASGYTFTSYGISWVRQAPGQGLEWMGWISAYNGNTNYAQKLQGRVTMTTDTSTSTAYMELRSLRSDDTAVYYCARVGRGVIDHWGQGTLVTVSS
VL: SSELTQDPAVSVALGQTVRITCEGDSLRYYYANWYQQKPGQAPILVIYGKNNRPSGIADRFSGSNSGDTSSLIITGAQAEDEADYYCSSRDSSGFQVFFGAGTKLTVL

Substitutions are numbered in sequence along the VL above, starting at 1 (not Kabat). All variants listed here change R28 of the VL, counted from its first residue. The Kd shown is the geometric mean over detected replicates; a lower Kd is a better binder. An entry "not detected" has no value in the source: the pair was not observed among the diploids in any replicate. This suggests poor binding but is not conclusive.

| changes | apparent Kd | seen in |
|---|---|---|
| R28V/P54K/F98P | 29 µM | 2 of 3 |
| D25F/R28F/Y31P | 340 nM | 3 of 3 |
| D25L/R28P/R53N | 10 µM | 1 of 3 |
| L27A/R28Y/N33W | 440 nM | 3 of 3 |
| R28V/G49K/N51D | not detected | 0 of 3 |
| R28V/R53Q/G94D | 5.2 µM | 1 of 3 |
| R28F | 1.2 µM | 3 of 3 |
| R28I/G49S/S89V | 15 µM | 2 of 3 |
| R28M/N51E/P54E | 5.9 µM | 1 of 3 |
| R28W/R90Q/S92I | 21 µM | 1 of 3 |
| R28W/N33P/G49N | 86 µM | 1 of 3 |
| L27P/R28A/S92M | 180 µM | 2 of 3 |
| R28L/Y31I/P54N | 23 µM | 1 of 3 |
| R28Y/G49Y/Q96P | 7.3 µM | 3 of 3 |
| R28Q | 64 nM | 3 of 3 |
| R28T/G49R/S55N | 6.2 µM | 2 of 3 |
| R28M/N51G/S55R | 2.8 µM | 3 of 3 |
| S26P/R28W/N33E | 1.6 µM | 1 of 3 |
| R28V/G49V/F98H | not detected | 0 of 3 |
| G24W/R28Q/R90N | not detected | 0 of 3 |
| R28L/R53P/Q96P | 3.1 µM | 1 of 3 |
| R28C/Y29K/S88L | 2.6 µM | 3 of 3 |
| R28W/P54W/Q96D | not detected | 0 of 3 |
| R28G/R53Y/G94F | not detected | 0 of 3 |
| R28E/N51Y/S55V | 4.4 µM | 2 of 3 |
| R28A/N52T/Q96A | 520 nM | 3 of 3 |
| R28S/S88E | 12 µM | 3 of 3 |
| G24F/R28I/N33I | 250 nM | 3 of 3 |
| R28G/P54D/D91N | 37 µM | 2 of 3 |
| R28M/Y30D/R53G | 210 nM | 3 of 3 |
| R28S/P54K/D91L | not detected | 0 of 3 |
| D25K/R28T/V97W | 500 nM | 3 of 3 |
| R28F/G49D/F98L | 2.5 µM | 3 of 3 |
| R28T/S88P/G94A | 1.5 µM | 2 of 3 |
| R28E/R53L/S55Y | 1.3 µM | 3 of 3 |
| S26W/R28L | 9.5 µM | 2 of 3 |
| R28L/Y29F/S55V | 450 nM | 3 of 3 |
| L27K/R28S | 130 nM | 3 of 3 |
| E23Y/R28I/N33W | 150 µM | 1 of 3 |
| R28L/Y31E/S88T | 95 nM | 3 of 3 |
| S26D/R28M/N52W | 1.9 µM | 3 of 3 |
| S26D/R28A/R53V | 3.0 µM | 3 of 3 |
| R28A/Y31E | 19 nM | 3 of 3 |
| R28V/N51T/V97R | not detected | 0 of 3 |
| R28E/F95C/Q96W | 810 nM | 3 of 3 |
| R28L/P54M/S89L | 12 µM | 1 of 3 |
| R28H/N52P/R90I | 63 µM | 2 of 3 |
| R28E/A32L/G49T | 4.3 µM | 2 of 3 |
| L27R/R28L/S93V | not detected | 0 of 3 |
| R28T/Q96N | 900 nM | 3 of 3 |
| R28N/S88C/S89V | 100 nM | 3 of 3 |
| R28F/Y29K/K50H | 470 nM | 3 of 3 |
| E23P/R28I/R90D | 4.4 µM | 1 of 3 |
| G24D/R28F/Y30H | 370 nM | 3 of 3 |
| R28Y/S88A/F95T | 980 nM | 3 of 3 |
| S26E/L27K/R28F | 330 µM | 1 of 3 |
| E23N/R28K/A32T | 69 nM | 3 of 3 |
| S26W/R28F | 5.7 µM | 3 of 3 |
| R28L/S88D/R90F | 250 nM | 3 of 3 |
| R28P/Y31D/F95N | 240 nM | 3 of 3 |
| R28E/N51E/S55W | 3.5 µM | 3 of 3 |
| S26H/R28A/Y31K | 2.9 µM | 3 of 3 |
| R28S/R53V/D91Q | 52 µM | 2 of 3 |
| G24T/R28S/D91P | 3.5 µM | 1 of 3 |
| R28C/K50N/N52K | 540 nM | 3 of 3 |
| R28H/N51K | 7.4 µM | 1 of 3 |
| E23H/R28G/Q96D | 190 nM | 3 of 3 |
| R28T/Y31F | 260 nM | 3 of 3 |
| R28T/S55P/S89A | 190 nM | 3 of 3 |
| R28Q/N51L/V97A | 28 µM | 1 of 3 |
| G24C/R28N/D91T | 1.1 µM | 3 of 3 |
| R28A/K50Q/R53F | not detected | 0 of 3 |
| D25W/R28W/S55N | 310 nM | 1 of 3 |
| E23F/R28D/A32G | 11 µM | 1 of 3 |
| R28I/N33T/V97W | 6.2 µM | 3 of 3 |
| D25N/S26M/R28M | 410 nM | 3 of 3 |
| R28L/Y31S/N33Q | 560 nM | 3 of 3 |

Background: pairings of library AAYL52 with three empty control strains gave a value in 28% of cases (median 8.2 µM, 5th percentile 800 nM). Values in that range, when seen in few replicates, are hard to tell from nonspecific mating. For reference, the parent read 200 nM as the reference entry and 180 nM as a member of this library.